How the values were obtained:
[1] = target: T1, Neutrophil elastase (Homo sapiens) (UniProt P08246); experiment: Second order rate constant for enzyme-inhibitor complex Human Leukocyte Elastase inhibition was determined
T1 sequence (whole entry): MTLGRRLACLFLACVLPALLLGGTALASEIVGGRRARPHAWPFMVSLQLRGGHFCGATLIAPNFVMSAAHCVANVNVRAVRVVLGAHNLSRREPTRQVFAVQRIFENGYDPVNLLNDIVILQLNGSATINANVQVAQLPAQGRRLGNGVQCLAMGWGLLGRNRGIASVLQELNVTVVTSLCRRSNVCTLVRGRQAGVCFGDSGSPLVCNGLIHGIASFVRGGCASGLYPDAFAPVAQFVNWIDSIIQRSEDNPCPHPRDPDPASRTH
Method in brief: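 Progress-curve assay at 25 °C with HLE purified from human leukocytes, in 50 mM sodium phosphate, 500 mM NaCl, pH 7.8. Substrate was MeOSuc-Ala-Ala-Pro-Val-pNA (200 μM final, 405 nm, 30–75 min) or, for a few inhibitors, Suc-Ala-Ala-Pro-Val-AMC (125 μM final, ex 340/em 460 nm, 4–5 min). At least five inhibitor concentrations were used, or 10 μM alone where solubility limited. Curves were fitted by slow-binding kinetics (k_obs = k_on'[I] + k_off).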

[2] = target: T1, Neutrophil elastase (Homo sapiens)

Row | SMILES | kon (10e3* M-1 s-1) [1] | koff [2]
1 | CCCOc1nc2sc(C)c(C)c2c(=O)o1 | 15.6 | 0.628
2 | COC(=O)CSc1nc2sc3c(c2c(=O)o1)CCCC3 | 1.63 | 0.292
3 | CSc1nc2sc(C)c(C)c2c(=O)o1 | 16.2 | 5.67
4 | CC(C)COc1nc2sc3c(c2c(=O)o1)CCCC3 | 1.01 | 0.515
5 | O=c1oc(SCc2ccccc2)nc2sc3c(c12)CCCC3 | 0.239 | 0.692
6 | CCN(CC)c1nc2sc3c(c2c(=O)o1)CCCC3 | 3.75 | 0.612
7 | CC(C)Nc1nc2sc3c(c2c(=O)o1)CCCC3 | 1.39 | 2.01
8 | CCCOc1nc2sc3c(c2c(=O)o1)CCCC3 | 99.3 | 1.42
9 | Cc1sc2nc(OCC(C)C)oc(=O)c2c1C | 0.219 | 0.292
10 | CCOc1nc2scc(C(C)C)c2c(=O)o1 | 76.4 | 4.29
11 | CCSc1nc2sc(C)c(C)c2c(=O)o1 | 1310 | 35.8
12 | CCOc1nc2sc(C)c(C)c2c(=O)o1 | 12.2 | 1.3
13 | Cc1sc2nc(SCc3ccccc3)oc(=O)c2c1C | 3.54 | 3.58
14 | CCOc1nc2sc3c(c2c(=O)o1)CCCC3 | 93.6 | 1.27
15 | CC(C)Nc1nc2sccc2c(=O)o1 | 3.2 | 1.34

Reference: ChEMBL document CHEMBL1131222, “Novel thieno[2,3-d][1,3]oxazin-4-ones as inhibitors of human leukocyte elastase” (J Med Chem, 1998)
